Usually EC50 stands for the midpoint of the concentration-response curve.
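Further: Cell-associated radioactivity on confluent EFO-27 monolayers in 96-well plates, measured by microplate scintillation counting.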

The first test deals with LHRH binding sites on human ovarian cancer cells (EFO-27).
Details: not given
Take `N=C(N)NCCC[C@H](NC(=O)[C@@H](Cc1ccc2ccccc2c1)NC(=O)CN1CCN(CC(=O)O)CCN(CC(=O)O)CCN(CC(=O)O)CC1)C(=O)N[C@@H](Cc1c[nH]c2ccccc12)C(=O)N[C@@H](CC(N)=O)C(=O)N[C@@H](Cc1c[nH]cn1)C(=O)N[C@H](CCCNC(=N)N)C(=O)N[C@@H](Cc1c[nH]c2ccccc12)C(=O)N[C@@H](Cc1ccc(C(=O)c2ccccc2)cc1)C(=O)N1CCC[C@H]1C(=O)NNC(N)=O` [BRU-2956]: the EC50 was found to be 0.27 µM.
The same measure, in the same setting: the figure for `CNCC(=O)N[C@@H](Cc1c[nH]cn1)C(=O)N[C@@H](Cc1c[nH]c2ccccc12)C(=O)N[C@@H](CO)C(=O)N[C@@H](Cc1c[nH]cn1)C(=O)N[C@H](CCCNC(=N)N)C(=O)N[C@@H](Cc1c[nH]c2ccccc12)C(=O)N[C@@H](Cc1ccc(C(=O)c2ccccc2)cc1)C(=O)N1CCC[C@H]1C(=O)NNC(N)=O` [BRU-2821] is 0.4 µM; for `CCCCCCCCCCCC[C@@H](NC(=O)CN1CCN(CC(=O)O)CCN(CC(=O)O)CCN(CC(=O)O)CC1)C(=O)N[C@@H](CCCNC(=N)N)C(=O)N[C@@H](Cc1c[nH]c2ccccc12)C(=O)N[C@@H](CO)C(=O)N[C@@H](Cc1c[nH]cn1)C(=O)N[C@H](CCCNC(=N)N)C(=O)N[C@@H](Cc1c[nH]c2ccccc12)C(=O)N[C@@H](Cc1ccc(C(=O)c2ccccc2)cc1)C(=O)N1CCC[C@H]1C(=O)NNC(N)=O` [BRU-3063] it is 0.47 µM.
In the case of `N=C(N)NCCC[C@H](NC(=O)[C@@H](Cc1ccc2ccccc2c1)NC(=O)CN1CCN(CC(=O)O)CCN(CC(=O)O)CCN(CC(=O)O)CC1)C(=O)N[C@@H](Cc1c[nH]c2ccccc12)C(=O)N[C@@H](Cc1ccc(CN)cc1)C(=O)N[C@@H](Cc1c[nH]cn1)C(=O)N[C@H](CCCNC(=N)N)C(=O)N[C@@H](Cc1c[nH]c2ccccc12)C(=O)N[C@@H](Cc1ccc(C(=O)c2ccccc2)cc1)C(=O)N1CCC[C@H]1C(=O)NNC(N)=O` [compound 3115], the EC50 came to 0.15 µM.
On the same count and under the same terms, the figure for `N=C(N)NCCC[C@H](NC(=O)[C@@H](Cc1ccc2ccccc2c1)NC(=O)CN1CCN(CC(=O)O)CCN(CC(=O)O)CCN(CC(=O)O)CC1)C(=O)N[C@@H](Cc1cccc2ccccc12)C(=O)N[C@@H](CO)C(=O)N[C@@H](Cc1c[nH]cn1)C(=O)N[C@H](CCCNC(=N)N)C(=O)N[C@@H](Cc1c[nH]c2ccccc12)C(=O)N[C@@H](Cc1ccc(C(=O)c2ccccc2)cc1)C(=O)N1CCC[C@H]1C(=O)NNC(N)=O` [compound 3104] is 0.25 µM; for `N=C(N)NCCC[C@H](NC(=O)[C@H](CCC1CCN(C(=N)N)CC1)NC(=O)CN1CCN(CC(=O)O)CCN(CC(=O)O)CCN(CC(=O)O)CC1)C(=O)N[C@@H](Cc1c[nH]c2ccccc12)C(=O)N[C@@H](CO)C(=O)N[C@@H](Cc1c[nH]cn1)C(=O)N[C@H](CCCNC(=N)N)C(=O)N[C@@H](Cc1c[nH]c2ccccc12)C(=O)N[C@@H](Cc1ccc(C(=O)c2ccccc2)cc1)C(=O)N1CCC[C@H]1C(=O)NNC(N)=O` [BRU-3094] it is 0.35 µM.
As to `N=C(N)NCCC[C@H](NC(=O)[C@@H](Cc1ccc2ccccc2c1)NC(=O)[C@H](CN)NC(=O)CN1CCN(CC(=O)O)CCN(CC(=O)O)CCN(CC(=O)O)CC1)C(=O)N[C@@H](Cc1c[nH]c2ccccc12)C(=O)N[C@@H](CO)C(=O)N[C@@H](Cc1c[nH]cn1)C(=O)N[C@H](CCCNC(=N)N)C(=O)N[C@@H](Cc1c[nH]c2ccccc12)C(=O)N[C@@H](Cc1ccc(C(=O)c2ccccc2)cc1)C(=O)N1CCC[C@H]1C(=O)NNC(N)=O` [compound 3096], the EC50 worked out at 0.37 µM.
With `CN[C@@H](Cc1ccccc1)C(=O)N[C@@H](Cc1c[nH]cn1)C(=O)N[C@@H](Cc1c[nH]c2ccccc12)C(=O)N[C@@H](CO)C(=O)N[C@@H](Cc1c[nH]cn1)C(=O)N[C@H](CCCNC(=N)N)C(=O)N[C@@H](Cc1c[nH]c2ccccc12)C(=O)N[C@@H](Cc1ccc(C(=O)c2ccccc2)cc1)C(=O)N1CCC[C@H]1C(=O)NNC(N)=O` [BRU-2734], the response was half-maximal at 0.15 µM (EC50).
The compound `N=C(N)NCCC[C@H](NC(=O)[C@H](Cc1ccc(-c2ccccc2)cc1)NC(=O)CN1CCN(CC(=O)O)CCN(CC(=O)O)CCN(CC(=O)O)CC1)C(=O)N[C@@H](Cc1c[nH]c2ccccc12)C(=O)N[C@@H](CO)C(=O)N[C@@H](Cc1c[nH]cn1)C(=O)N[C@H](CCCNC(=N)N)C(=O)N[C@@H](Cc1c[nH]c2ccccc12)C(=O)N[C@@H](Cc1ccc(C(=O)c2ccccc2)cc1)C(=O)N1CCC[C@H]1C(=O)NNC(N)=O` [BRU-3070] returned a half-maximal effective concentration (EC50) of 0.28 µM.
Same read-out and setting: the same measure for `N=C(N)NCCC[C@H](NC(=O)[C@@H](Cc1ccc2ccccc2c1)NC(=O)CN1CCN(CC(=O)O)CCN(CC(=O)O)CCN(CC(=O)O)CC1)C(=O)N[C@@H](Cc1c[nH]c2ccccc12)C(=O)N[C@@H](CO)C(=O)N[C@@H](CCCN)C(=O)N[C@H](CCCNC(=N)N)C(=O)N[C@@H](Cc1c[nH]c2ccccc12)C(=O)N[C@@H](Cc1ccc(C(=O)c2ccccc2)cc1)C(=O)N1CCC[C@H]1C(=O)NNC(N)=O` [compound 2961]: 0.35 µM; for `N=C(N)NCCC[C@@H](NC(=O)[C@H](Cc1c[nH]cn1)NC(=O)[C@H](CO)NC(=O)[C@H](Cc1c[nH]c2ccccc12)NC(=O)[C@H](Cc1c[nH]cn1)NC(=O)[C@@H]1CCC(=O)N1)C(=O)N[C@@H](Cc1c[nH]c2ccccc12)C(=O)N[C@@H](Cc1ccc(C(=O)c2ccccc2)cc1)C(=O)N1CCC[C@H]1C(=O)NNC(N)=O` [BRU-2822]: 0.42 µM; for `N=C(N)NCCC[C@H](NC(=O)[C@H](CO)NC(=O)[C@H](Cc1c[nH]c2ccccc12)NC(=O)[C@H](CCCNC(=N)N)NC(=O)[C@@H](Cc1ccc2ccccc2c1)NC(=O)CN1CCN(CC(=O)O)CCN(CC(=O)O)CCN(CC(=O)O)CC1)C(=O)N[C@H](CCCNC(=N)N)C(=O)N[C@@H](Cc1c[nH]c2ccccc12)C(=O)N[C@@H](Cc1ccc(C(=O)c2ccccc2)cc1)C(=O)N1CCC[C@H]1C(=O)NNC(N)=O` [compound 2959]: 0.25 µM.
In turn, `N=C(N)NCCC[C@H](NC(=O)[C@@H](Cc1ccc2ccccc2c1)NC(=O)c1ccc(NC(=O)CNC(=O)CN2CCN(CC(=O)O)CCN(CC(=O)O)CCN(CC(=O)O)CC2)cc1)C(=O)N[C@@H](Cc1c[nH]c2ccccc12)C(=O)N[C@@H](CO)C(=O)N[C@@H](Cc1c[nH]cn1)C(=O)N[C@H](CCCNC(=N)N)C(=O)N[C@@H](Cc1c[nH]c2ccccc12)C(=O)N[C@@H](Cc1ccc(C(=O)c2ccccc2)cc1)C(=O)N1CCC[C@H]1C(=O)NNC(N)=O` [compound 3002] had a concentration giving a half-maximal response (EC50) of 0.5 µM.
Regarding `CCCCCCCCCCCC[C@H](NC(=O)CN1CCN(CC(=O)O)CCN(CC(=O)O)CCN(CC(=O)O)CC1)C(=O)N[C@@H](CCCNC(=N)N)C(=O)N[C@@H](Cc1c[nH]c2ccccc12)C(=O)N[C@@H](CO)C(=O)N[C@@H](Cc1c[nH]cn1)C(=O)N[C@H](CCCNC(=N)N)C(=O)N[C@@H](Cc1c[nH]c2ccccc12)C(=O)N[C@@H](Cc1ccc(C(=O)c2ccccc2)cc1)C(=O)N1CCC[C@H]1C(=O)NNC(N)=O` [BRU-3055], the half-maximal effective concentration (EC50) turned out to be 0.39 µM.
Same read-out and setting: the same measure for `N=C(N)NCCC[C@H](NC(=O)[C@@H](Cc1ccc2ccccc2c1)NC(=O)c1ccc(CNC(=O)CN2CCN(CC(=O)O)CCN(CC(=O)O)CCN(CC(=O)O)CC2)cc1)C(=O)N[C@@H](Cc1c[nH]c2ccccc12)C(=O)N[C@@H](CO)C(=O)N[C@@H](Cc1c[nH]cn1)C(=O)N[C@H](CCCNC(=N)N)C(=O)N[C@@H](Cc1c[nH]c2ccccc12)C(=O)N[C@@H](Cc1ccc(C(=O)c2ccccc2)cc1)C(=O)N1CCC[C@H]1C(=O)NNC(N)=O` [BRU-2963]: 0.28 µM.

Still in this test, the particulars now being: Table 5: modifications of amino acids at positions 1 and 2; in vitro binding on EFO-27 cells.
`N=C(N)NCCC[C@@H](NC(=O)[C@H](Cc1c[nH]cn1)NC(=O)[C@H](CO)NC(=O)[C@H](Cc1c[nH]c2ccccc12)NC(=O)[C@@H](CCCNC(=N)N)NC(=O)[C@@H](Cc1ccc2ccccc2c1)NC(=O)CN1CCN(CC(=O)O)CCN(CC(=O)O)CCN(CC(=O)O)CC1)C(=O)N[C@@H](Cc1c[nH]c2ccccc12)C(=O)N[C@@H](Cc1ccc(C(=O)c2ccccc2)cc1)C(=O)N1CCC[C@H]1C(=O)NNC(N)=O` [BRU-3049] had an EC50 of 0.36 µM.

Still in this test, the particulars now being: Table 8: N-substituted amino acid at position 1 and Gly as linker; in vitro binding on EFO-27 cells.
In turn, `N=C(N)NCCC[C@@H](NC(=O)[C@H](Cc1c[nH]cn1)NC(=O)[C@H](CO)NC(=O)[C@H](Cc1c[nH]c2ccccc12)NC(=O)[C@H](Cc1c[nH]cn1)NC(=O)CN(CCCCCCN)C(=O)CNC(=O)CN1CCN(CC(=O)O)CCN(CC(=O)O)CCN(CC(=O)O)CC1)C(=O)N[C@@H](Cc1c[nH]c2ccccc12)C(=O)N[C@@H](Cc1ccc(C(=O)c2ccccc2)cc1)C(=O)N1CCC[C@H]1C(=O)NNC(N)=O` [compound 2876] registered an EC50 of 0.5 µM.

Staying with this test, now noted: Table 11: modification of amino acid at position 5; EFO-27 cells.
For `N=C(N)NCCC[C@H](NC(=O)[C@@H](Cc1ccc2ccccc2c1)NC(=O)CN1CCN(CC(=O)O)CCN(CC(=O)O)CCN(CC(=O)O)CC1)C(=O)N[C@@H](Cc1c[nH]c2ccccc12)C(=O)N[C@@H](CO)C(=O)N[C@@H](Cc1ccoc1)C(=O)N[C@H](CCCNC(=N)N)C(=O)N[C@@H](Cc1c[nH]c2ccccc12)C(=O)N[C@@H](Cc1ccc(C(=O)c2ccccc2)cc1)C(=O)N1CCC[C@H]1C(=O)NNC(N)=O` [compound 2960], a half-maximal effect (EC50) was put at 0.4 µM.

The test is the same for the next values; noted with them: read-out: EC50 μM; Underivatized LHRH peptides and LHRH peptides with chelator on N-terminus; EFO-27 cells.
Regarding `N=C(N)NCCC[C@H](NC(=O)[C@H](Cc1c[nH]cn1)NC(=O)[C@H](CO)NC(=O)[C@H](Cc1c[nH]c2ccccc12)NC(=O)[C@H](CCCNC(=N)N)NC(=O)[C@@H](Cc1ccc2ccccc2c1)NC(=O)CN1CCN(CC(=O)O)CCN(CC(=O)O)CCN(CC(=O)O)CC1)C(=O)N[C@@H](Cc1c[nH]c2ccccc12)C(=O)N[C@@H](Cc1ccc(C(=O)c2ccccc2)cc1)C(=O)N1CCC[C@H]1C(=O)NNC(N)=O` [BRU-3031], the half-maximal effective concentration (EC50) was determined as 0.31 µM.
In the case of `N=C(N)NCCC[C@H](NC(=O)[C@@H](Cc1ccc2ccccc2c1)NC(=O)[C@H](CCCCN)NC(=O)CN1CCN(CC(=O)O)CCN(CC(=O)O)CCN(CC(=O)O)CC1)C(=O)N[C@@H](Cc1c[nH]c2ccccc12)C(=O)N[C@@H](CO)C(=O)N[C@@H](Cc1c[nH]cn1)C(=O)N[C@H](CCCNC(=N)N)C(=O)N[C@@H](Cc1c[nH]c2ccccc12)C(=O)N[C@@H](Cc1ccc(C(=O)c2ccccc2)cc1)C(=O)N1CCC[C@H]1C(=O)NNC(N)=O` [BRU-3097], the EC50 was 0.45 µM.

The record behind these values is patent publication US20120045393A1 (priority 2009, published 2012).
